Structures are written as SMILES. The list shows a part of the results, in another mix than the full data. Some of these compounds have results that are not shown, active ones among them. Records with an inconclusive call do not appear. Calls of active or inactive are those of the source. The call rests on the fitted dose curve; in most records, active means well fitted activation curve with a large enough effect; inconclusive means small, poorly fitted or top-dose-only effect; inactive means no such curve, though single readings can be large or run the other way.

This assay is described as follows: qHTS of TDP-43 Inhibitors: NCGC Sytravon Library Screen. Further: 0% is about no effect; nearly all actives have a fitted effect of over 55% in size. Conditions: yeast TDP-43 toxicity rescue, BacTiter-Glo growth, 24 h; at 46.1 µM (top of the series). The source says:
The goal of this project is to identify new chemical probes capable of reversing the toxicity associated with TDP-43 which is associated with frontotemporal lobar degeneration and amyotrophic lateral sclerosis. These compounds will provide a complementary approach to deciphering the tangled mechanisms of toxicity and protection that we have uncovered through genome-wide genetic screens and are beginning to uncover in a large-scale proteomics analysis with mass spectroscopy. To this end, a miniaturized assay was developed to be screened against the Molecular Libraries Small Molecule Repository (MLSMR) to discover TDP-43 inhibitors. Please note that in the set-up this yeast-based assay compounds that inhibit as TDP-43, have a read-out as activators. NIH Chemical Genomics Center [NCGC] NIH Molecular Libraries Probe Centers Network [MLPCN] Assay Submitter (PI): Susan Lindquist, Whitehead Institute/MIT MLPCN Grant: R21 NS060957
Dispense 2.5 microL yeast galactose medium per 1536-well plate, pin compound, dispense 2.5 microL TDP-43 expressing yeast in galactose medium at OD600=0.02 (pregrown in raffinose medium to mid-log phase) per well, incubate for 24 hr at 30 deg C, and cell growth will be measured using 5 microL of Bactiter/Glo reagent to entire plate and read using Luminescence Protocol in ViewLux.
In the case of `O=C(OC1CN2CCC1CC2)C(CO)(c1ccccc1)c1ccccc1` (configuration not stated), the growth rescue (activation) was inactive: 5.62%.

Consider `CN(C)C1(CNC(=O)c2ccc(Br)cc2)CCCCC1`, for which the growth rescue (activation) is inactive: -5.47%.

With `CN(C)C1CCCC1OC(=O)C(O)(c1ccccc1)c1ccccc1` (configuration not stated), the growth rescue (activation) is inactive: 3.88%.

Regarding `O=C(NCC1(N2CCCCC2)CCCCC1)c1cccc(Br)c1`, the growth rescue (activation) was inactive: 12.2%.

Take `Cc1cc(C(=O)NCC2(N3CCCCC3)CCCCC2)ccc1[N+](=O)[O-]`: the growth rescue (activation) was inactive: 12.4%.

Regarding `Cc1ccc(C(=O)NCC2(N3CCCCC3)CCCCC2)cc1`, the growth rescue (activation) is inactive: -25.4%.

In the case of `CCN(CC)CC(C)C(C)OC(=O)C(O)(c1ccccc1)c1ccccc1` (configuration not stated), the growth rescue (activation) was inactive: 29%.

The record behind these values is PubChem BioAssay AID1347073 (National Center for Advancing Translational Sciences (NCATS), 2019).
